Source: US8591908B2, “Immunogen for preparation of therapeutic vaccines or drugs for treatment of hepatitis B and the producing method and use thereof” (Institute of Immunology, PLA, priority 2002, dated 2013)

Test system: HBV-DNA transgenic mice
Experiment: HBV transgenic mice: IFN-γ secreting cells, ELI-SPOT
Type: in vivo
Details: 30th day after end of immunization; IFN-α2b at 15000 U/mouse
Procedure: FIG. 6: HBV-DNA transgenic mice (ayw type Kunming mice transfected with the complete gene of HBV (1.3 Kb) were grouped randomly, and each group had five mice. The mice were administered subcutaneously with one of three doses (namely, 10, 100 and 1000 U/mouse) below both costal regions and at both postpede palmas, and the immunizations were enhanced once a week for three times. INF-α2b (15000 U/mouse) was included as a positive control drug, and physiological saline was included as negative control drug. Thirty days after the end of the administration, spleens were removed from mice, and spleen lymphocytes were isolated and stimulated with 10 ng/ml test drug in vitro for three days. The levels of cytokines such as IFN-γ, IL-4, etc. in supernatant were measured by the ELISA method, and the activity of the test drug (CH3(CH2)14COKSSQYIKANSKFIGITEAAASIVSPFIPLLGGGDPRVRGLYFPA) (SEQ ID NO:5) for inducing the differentiation of T cells into Th1/Th2 type was analyzed. […] The expression frequency of IFN-γ secreting cells in peripheral blood lymphocytes was measured by the ELI-SPOT method in said supernatant. […] In the group of administration with IFN-α2b, the highest 1250 IFN-γ secreting cells/10^6 PBMC (D) were detected. […]

For “IFN-α2b: positive control drug, 15000 U/mouse [reference compound]”, which “highest expression frequency of IFN-γ secreting cells” value is on record?
Its value is 1250 IFN-γ secreting cells/10^6 PBMC.
